Reference: patent US20160346368A1

Key:
[1] = target: PVR-CD4TM-GFP (human); test: flow cytometry; HEK-293T cells transfected with PVR-CD4TM-GFP; PE anti-human Fc
[2] = target: PVR S72N variant-CD4TM-GFP (human); test: flow cytometry; HEK-293T cells transfected with PVR S72N variant-CD4TM-GFP; PE anti-human Fc
[3] = target: PVR Q82K variant-CD4TM-GFP (human); test: flow cytometry; HEK-293T cells transfected with PVR Q82K variant-CD4TM-GFP; PE anti-human Fc
[4] = target: PVR Q82K+S72N double variant-CD4TM-GFP (human); test: flow cytometry; HEK-293T cells transfected with PVR Q82K+S72N double variant-CD4TM-GFP; PE anti-human Fc

MFI [1]: 219 | MFI [2]: 194 | MFI [3]: 558 | MFI [4]: 355
Substance: PVRL3-Fc (from UniProt Q9NQS3 58-404) (Fc fusion)
